Measured values reported in US6693208B2, “Compounds and compositions for delivering active agents” (Emisphere Technologies, Inc., priority 1999, dated 2004).

Assay: Insulin oral delivery in rats, serum human insulin by ELISA
Details: human insulin alone without delivery agent, previous experiments
Experimental: Oral dosing (PO) compositions of delivery agent compound and human zinc insulin (minimum 26 IU/mg available from Calbiochem—Novabiochem Corp, La Jolla, Calif.) were prepared in deionized water. […] The solution was vortexed, then heated (about 37° C.) and sonicated. The pH was adjusted to about 7 to 8.5 with NaOH or HCl.
The typical dosing and sampling protocols were as follows. […] A dosing group of five animals was administered one of the dosing solutions. […] The syringe was filled with dosing solution by drawing the solution through the catheter, which was then wiped dry. The catheter was placed down the esophagus leaving 1 cm of tubing past the incisors. The dosing solution was administered by pressing the syringe plunger.
Serum insulin levels were determined with an Insulin ELISA Test Kit (Kit # DSL-10-1600 from Diagnostic Systems Laboratories, Inc., Webster, Tex.), modifying the standard protocol in order to optimize the sensitivity and linear range of the standard curve for the volumes and concentrations of the samples used in the present protocol. […] The five values for each time point were averaged and the results plotted as serum insulin concentration versus time.

## human insulin
  levels of human insulin following oral dosing with human insulin alone: no measurable levels
